Test results from patent US12139488B2, “Pyrido[3,2-d]pyrimidine compounds uses thereof for treating a proliferative disease” (Universite de Montreal, priority 2021, dated 2024).
Like-named read-outs stand apart in the source and are kept apart here.

The chains behind the UniProt entries cited, without tags or fusion partners.
UniProt P04049, whole entry: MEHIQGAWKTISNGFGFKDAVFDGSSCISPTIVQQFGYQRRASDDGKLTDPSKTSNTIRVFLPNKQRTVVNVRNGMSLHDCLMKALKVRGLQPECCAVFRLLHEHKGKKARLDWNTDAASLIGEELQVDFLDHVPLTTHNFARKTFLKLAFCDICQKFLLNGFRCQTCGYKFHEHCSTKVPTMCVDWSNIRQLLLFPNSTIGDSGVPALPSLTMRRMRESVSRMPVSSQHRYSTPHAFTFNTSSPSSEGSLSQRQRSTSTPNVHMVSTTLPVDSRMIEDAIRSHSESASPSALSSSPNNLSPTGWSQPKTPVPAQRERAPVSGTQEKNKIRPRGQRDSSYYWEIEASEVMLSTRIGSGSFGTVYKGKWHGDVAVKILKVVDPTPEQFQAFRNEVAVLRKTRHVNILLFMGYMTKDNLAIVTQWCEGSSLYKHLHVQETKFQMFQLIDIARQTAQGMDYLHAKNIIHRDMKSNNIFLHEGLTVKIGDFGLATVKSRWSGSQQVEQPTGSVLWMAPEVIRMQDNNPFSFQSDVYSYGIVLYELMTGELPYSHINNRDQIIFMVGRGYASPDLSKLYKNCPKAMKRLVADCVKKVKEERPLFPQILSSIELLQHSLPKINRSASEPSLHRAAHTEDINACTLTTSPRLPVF
UniProt P10398, whole entry: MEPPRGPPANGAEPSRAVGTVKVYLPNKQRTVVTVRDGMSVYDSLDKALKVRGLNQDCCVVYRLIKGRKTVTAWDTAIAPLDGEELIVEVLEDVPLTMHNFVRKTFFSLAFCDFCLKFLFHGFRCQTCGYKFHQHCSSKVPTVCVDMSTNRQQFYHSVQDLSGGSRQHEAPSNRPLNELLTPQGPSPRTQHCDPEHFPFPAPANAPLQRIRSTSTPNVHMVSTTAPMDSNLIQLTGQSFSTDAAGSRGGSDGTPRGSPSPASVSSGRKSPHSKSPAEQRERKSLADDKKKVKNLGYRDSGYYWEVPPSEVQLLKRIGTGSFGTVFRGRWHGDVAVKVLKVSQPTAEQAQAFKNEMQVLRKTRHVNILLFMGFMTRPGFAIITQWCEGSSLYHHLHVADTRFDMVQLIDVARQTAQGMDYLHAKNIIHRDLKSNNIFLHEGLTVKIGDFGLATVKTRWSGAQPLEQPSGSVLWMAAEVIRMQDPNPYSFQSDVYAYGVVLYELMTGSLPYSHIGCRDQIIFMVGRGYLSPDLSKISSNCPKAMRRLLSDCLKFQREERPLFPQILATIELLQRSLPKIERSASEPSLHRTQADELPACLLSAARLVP
UniProt P15056, whole entry: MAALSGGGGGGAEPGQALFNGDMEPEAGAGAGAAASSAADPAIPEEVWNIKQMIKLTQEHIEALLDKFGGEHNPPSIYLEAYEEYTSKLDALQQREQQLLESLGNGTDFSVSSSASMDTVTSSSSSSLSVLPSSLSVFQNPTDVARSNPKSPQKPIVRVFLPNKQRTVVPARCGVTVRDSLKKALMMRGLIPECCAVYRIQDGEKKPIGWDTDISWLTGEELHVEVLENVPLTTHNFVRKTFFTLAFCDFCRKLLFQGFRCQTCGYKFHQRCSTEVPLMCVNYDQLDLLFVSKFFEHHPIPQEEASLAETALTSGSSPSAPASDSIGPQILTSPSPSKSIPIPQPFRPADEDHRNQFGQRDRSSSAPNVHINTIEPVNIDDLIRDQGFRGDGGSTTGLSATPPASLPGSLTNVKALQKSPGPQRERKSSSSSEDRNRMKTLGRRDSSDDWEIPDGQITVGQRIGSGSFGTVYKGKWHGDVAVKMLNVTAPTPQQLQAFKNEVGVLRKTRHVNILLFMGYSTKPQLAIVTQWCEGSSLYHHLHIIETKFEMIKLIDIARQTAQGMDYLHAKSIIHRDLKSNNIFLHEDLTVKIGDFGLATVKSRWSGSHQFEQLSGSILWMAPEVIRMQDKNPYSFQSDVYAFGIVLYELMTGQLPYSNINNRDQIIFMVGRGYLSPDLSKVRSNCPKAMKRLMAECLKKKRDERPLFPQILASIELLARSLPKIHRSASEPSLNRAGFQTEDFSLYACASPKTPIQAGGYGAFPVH

Legend:
[1] = target: CRAF (Homo sapiens, UniProt P04049); assay: CRAF kinase activity assay (ADP-Glo)
[2] = system: pERK in HCT-116 cells (KRAS G13D); assay: Phospho-ERK inhibition (AlphaLISA SureFire Ultra p-ERK 1/2), HCT116; details: for HCT116 pERK % Ymin (lowest value of the IC50 curve): Ymin above −20% = minimal or no paradoxical activation
Summary of the method: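 Read-out: AlphaLISA p-ERK1/2 (Thr202/Tyr204) in lysates after 1 h exposure to compound in complete RPMI-1640, 5% FBS, 0.5% DMSO. Trametinib defined 100% inhibition and vehicle 0%; IC50 values come from four-parameter curves. Negative inhibition was taken as paradoxical pERK induction.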

[3] = target: ARAF (Homo sapiens (Human), UniProt P10398); assay: ARAF kinase activity assay (AlphaLISA p-MEK 1/2 detection); details: read-out: Kinase IC50 (nM) ARAF
Procedure: Compound preparation: solid samples of each substances in 1 dram vials were suspended in DMSO (Fisher Scientific) at a stock concentration of 20 mM. Stocks were kept at −20° C. and protected from light. If solubility of the compound at 20 mM appeared to be an issue, the initial concentration of the DMSO stock was changed to 10 mM or 5 mM.
In vitro enzymatic reactions were used for evaluating compounds intrinsic activity against BRAF, CRAF and ARAF. For BRAF and CRAF, 0.375 nM of purified GST-tagged kinases (cat #B4062-10 UG and cat #R1656-10 UG respectively from Millipore Sigma) were incubated with 75 nM of kinase-dead MEK1 substrate (cat #40075; BPS Bioscience) in the presence of 10 μM of Ultrapure ATP (cat #V9102; Promega; part V915A) with and without the test compound in a buffer containing 50 mM HEPES pH 7.5, 10 mM MgCl2, 1 mM EDTA, 0.01% Brij-35 and 2 mM DTT. Separate reactions were performed with the MEK1 substrate and ATP as a blank control. ARAF, kinase reactions were rigorously the same with the exception that kinase concentration was raised to 3.75 nM (cat #1768-0000-1; Reaction Biology).
For compound treatment, 5 μL/well of test substance solution are placed in a 384-well proxyplate (Perkin Elmer) and mixed with 2× concentrated kinase reactions. The dilution series is selected so that nine concentrations cover a range from 100 nM to 0.01 nM. […] The final concentration of DMSO in the assay is set at 0.05%.
ARAF kinase reactions were carried out for a total of 2 hours at 30° C. and then stopped by addition of EDTA at a final concentration of 40 mM. Reactions were then detected using the AlphaLISA® SureFire® Ultra™ p-MEK 1/2 (Ser218/222) (PerkinElmer) kit. Reactions were performed with 5 μL of kinase reaction according to the manufacturer's specifications in 384-well proxyplates (Perkin Elmer) followed by overnight incubation of the AlphaLISA® reactions at room temperature in a humidified chamber. After completion of the detection reactions, the signals were recorded on a Synergy Neo2 plate reader (Biotek) equipped with AlphaLISA® filters. The effect of each compound dilution on the pMEK signal generated by ARAF reactions was expressed in % inhibition and calculated as follows. An internal 100% inhibition control (average of luminescence in kinase reactions comprising kinase dead MEK1 substrate alone) was included in each plate to measure of pMEK background and was subtracted from each data point. The average of DMSO (vehicle) controls (set as 0% inhibition) was also established and used to calculate % inhibition: % inhibition=100*(1−((pMEK signalcompound)/(pMEK signalDMSO)))
IC50 values were obtained by plotting the kinase inhibition values and fitting the dose-activity curves using a log(agonist) versus response-variable slope (four parameters) function using either GraphPadPrism (V7.0) or Dotmatics Screening Ultra platform. Standards included in the ARAF kinase assay were Belvarafenib (MedChem Express cat #HY-109080; CAS #1446113-23-0), LXH254 (MedChem Express cat #HY-112089; CAS #1800398-38-2) and BGB283 (cat #HY-18957; CAS #1446090-79-4).

[4] = target: BRAF (Homo sapiens (Human), UniProt P15056); assay: BRAF kinase activity assay (ADP-Glo)
[5] = read-out: Kinase IC50 (nM) CRAF
[6] = read-out: Kinase IC50 (nM), BRAF biochemical kinase assay, BRAF
[7] = read-out: Kinase IC50 (nM), CRAF biochemical kinase assay, CRAF
[8] = read-out: HCT116 pERK IC50, HCT116 cells

| Structure (SMILES) | IC50 [1, 5] [nM] | HCT116 pERK Ymin % ([2]; lowest % inhibition value of the IC50 curve, HCT116) [%] | IC50 ([2]; read-out: HCT116 pERK IC50 in μM, HCT116 cells, 1 h treatment) [µM] | IC50 [3] [nM] | IC50 [4, 6] [nM] | IC50 [1, 7] [nM] | HCT116 pERK % Ymin (lowest value of the IC50 curve) ([2]; HCT116 cells) [%] | IC50 [2, 8] [µM] | IC50 ([2]; read-out: HCT116 pERK IC50, HCT116 cells, class symbol) [µM] | IC50 ([4]; read-out: Kinase IC50 (nM) BRAF) [nM] | HCT116 pERK Ymin % ([2]; HCT116 cells, Ymin in brackets) [%] | IC50 ([2]; read-out: HCT116 pERK IC50, HCT116 cells, class symbol before the bracket) [µM] |
| --- | --- | --- | --- | --- | --- | --- | --- | --- | --- | --- | --- | --- |
| COc1ccc(S(=O)(=O)Nc2ccc(F)c(Nc3ncnc4ccc(-n5cnc6ccccc65)nc34)c2F)c(C)c1F | < 10 | 3 | < 0.5 | 1 to 10 |  |  |  |  |  |  |  |  |
| O=S(=O)(Nc1ccc(F)c(Nc2ncnc3ccc(-n4cnc5c(N6CCN(CCO)CC6)cccc54)nc23)c1F)c1cccc(Cl)c1Cl [621] |  |  |  | 1 to 10 | 1 to 10 | 10 to 50 | 4 | < 0.5 |  |  |  |  |
| Cc1c(F)cccc1S(=O)(=O)Nc1ccc(F)c(Nc2ncnc3ccc(-n4cc(C(=O)N5C6CCC5COC6)c5ccccc54)nc23)c1F |  |  |  | 1 to 10 |  |  |  |  | 0.5 to 1 |  |  |  |
| Cc1c(F)cccc1S(=O)(=O)Nc1ccc(F)c(Nc2ncnc3ccc(-n4nc(C(=O)N5CCC(C)(O)CC5)c5ccccc54)nc23)c1F | 10 to 50 |  |  | 1 to 10 |  |  |  |  |  | < 1 | −4.3 | < 0.5 |
| COC1CCN(c2cccc3c2ncn3-c2ccc3ncnc(Nc4c(F)ccc(NS(=O)(=O)c5cccc(Cl)c5Cl)c4F)c3n2)CC1 |  |  |  | 1 to 10 | 1 to 10 | 10 to 50 | −14 | < 0.5 |  |  |  |  |
| O=S(=O)(Nc1ccc(F)c(Nc2ncnc3ccc(-n4cnc5c(N6CCC[C@H](O)C6)cccc54)nc23)c1F)c1cccc(Cl)c1Cl |  |  |  | 1 to 10 | < 1 | < 10 | −3 | < 0.5 |  |  |  |  |
